Measured values: publication PMC7782793, “Hydroxamic acid-modified peptide microarrays for profiling isozyme-selective interactions and inhibition of histone deacetylases” (Nature Communications, 2021)

Biological target: T1, HDAC8 (Homo sapiens, UniProt Q9BY41)
T1 sequence (Q9BY41 1-377): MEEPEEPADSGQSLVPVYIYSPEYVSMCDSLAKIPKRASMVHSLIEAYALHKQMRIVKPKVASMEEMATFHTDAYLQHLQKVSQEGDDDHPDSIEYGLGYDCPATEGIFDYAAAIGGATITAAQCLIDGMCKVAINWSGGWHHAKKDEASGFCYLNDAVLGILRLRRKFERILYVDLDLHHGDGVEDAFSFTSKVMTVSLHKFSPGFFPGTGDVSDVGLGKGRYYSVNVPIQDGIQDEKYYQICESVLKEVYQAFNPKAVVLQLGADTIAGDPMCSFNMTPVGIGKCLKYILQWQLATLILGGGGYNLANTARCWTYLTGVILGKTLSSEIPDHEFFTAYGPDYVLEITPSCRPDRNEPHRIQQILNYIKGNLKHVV
Assay: HDAC inhibition assay (fluorogenic, Ac-Leu-Gly-Lys(Tfa)-AMC)
Type: biochemical

O=C(CCCCCCC(=O)Nc1ccccc1)NO [SAHA, reference compound]
Ki: 650 ± 4 nM
